Results on 2 substances are retold here after PMC9694488, “Amyloid beta and its naturally occurring N-terminal variants are potent activators of human and mouse formyl peptide receptor 1” (The Journal of Biological Chemistry, 2022).

Amino acid sequences for entries named in this document (tags omitted). A change or cut given only in a name is not applied to a line headed by its entry.
UniProt P05067: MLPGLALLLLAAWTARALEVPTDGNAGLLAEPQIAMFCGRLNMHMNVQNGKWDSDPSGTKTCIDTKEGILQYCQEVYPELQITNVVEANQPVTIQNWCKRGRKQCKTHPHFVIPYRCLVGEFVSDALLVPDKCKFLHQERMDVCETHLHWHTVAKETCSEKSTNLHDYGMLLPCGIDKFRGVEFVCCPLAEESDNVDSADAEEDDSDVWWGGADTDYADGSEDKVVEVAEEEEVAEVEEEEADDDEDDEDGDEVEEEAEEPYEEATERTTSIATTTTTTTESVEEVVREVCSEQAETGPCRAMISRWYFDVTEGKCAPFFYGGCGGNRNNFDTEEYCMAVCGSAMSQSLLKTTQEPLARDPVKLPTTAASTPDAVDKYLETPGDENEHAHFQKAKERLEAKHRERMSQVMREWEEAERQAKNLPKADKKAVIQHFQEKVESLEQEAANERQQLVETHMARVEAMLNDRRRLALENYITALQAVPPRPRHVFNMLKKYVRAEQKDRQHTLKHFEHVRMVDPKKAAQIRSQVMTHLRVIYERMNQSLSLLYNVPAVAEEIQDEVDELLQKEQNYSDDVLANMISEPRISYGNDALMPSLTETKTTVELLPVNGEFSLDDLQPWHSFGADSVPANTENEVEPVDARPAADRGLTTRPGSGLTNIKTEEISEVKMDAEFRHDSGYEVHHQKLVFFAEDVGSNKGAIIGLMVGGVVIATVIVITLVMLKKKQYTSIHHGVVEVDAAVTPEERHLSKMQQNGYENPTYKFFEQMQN

The subject of this experiment is human and mouse FPRs. Briefly: Ca2+ imaging, FPR-transfected HEK293T (several human and mouse FPRs taken together). The conditions noted are these: 10 μM; n = 3, N = 1. In kind it is cell-based.

As to “Aβ1-16: C-terminally abridged Aβ fragment, from Anaspec/MoBiTec (DAEFRHDSGYEVHHQK; Amyloid-beta protein 42; UniProt P05067 672-687, looked up, fragment)”, the “Ca2+ mobilization, human and mouse FPRs” value is “failed to induce any Ca^2+ mobilization”.
The same measure for “Aβ1-10: C-terminally abridged Aβ fragment, from Anaspec/MoBiTec (DAEFRHDSGY; Amyloid-beta protein 42; UniProt P05067 672-681, looked up, fragment)”: “failed to induce any Ca^2+ mobilization”.
